{"sequences": {"note": "Chains of the proteins cited; added tags and fusions are not shown.", "UniProt P08912, whole entry": "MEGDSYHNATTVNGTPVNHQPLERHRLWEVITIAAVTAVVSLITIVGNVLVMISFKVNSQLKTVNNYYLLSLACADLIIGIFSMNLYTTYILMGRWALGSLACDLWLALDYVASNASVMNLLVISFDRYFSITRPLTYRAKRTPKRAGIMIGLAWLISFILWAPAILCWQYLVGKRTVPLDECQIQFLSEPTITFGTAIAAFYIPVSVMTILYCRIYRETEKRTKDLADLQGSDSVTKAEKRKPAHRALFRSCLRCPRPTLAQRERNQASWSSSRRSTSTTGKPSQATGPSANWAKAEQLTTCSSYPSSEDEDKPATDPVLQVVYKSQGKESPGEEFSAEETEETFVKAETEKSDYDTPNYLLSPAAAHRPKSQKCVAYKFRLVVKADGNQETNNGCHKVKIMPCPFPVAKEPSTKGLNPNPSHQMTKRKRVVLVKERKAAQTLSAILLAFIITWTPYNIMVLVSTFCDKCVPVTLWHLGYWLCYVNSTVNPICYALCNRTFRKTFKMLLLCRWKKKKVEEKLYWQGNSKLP"}, "source": "PubChem BioAssay AID624040", "about": "(The Scripps Research Institute Molecular Screening Center, 2012)", "note": "The list shows a part of the results, in another mix than the full data. The source made the active and inactive calls.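 The calls were made as follows: active = inhibition above a per-plate cutoff, the mean of that plate's test compounds plus 3 SD (cut at about 27% in these data); inactive = the rest.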", "data": [{"target": "Muscarinic acetylcholine receptor M5 (Homo sapiens) (UniProt P08912)", "assay": "human M5 muscarinic receptor antagonists, primary screen, CHO cells, Fluo-8 calcium fluorescence (AID 624040);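 also: 0% = acetylcholine EC80 with DMSO and 100% = DMSO without agonist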", "conditions": "CHO-hM5 cells, ACh EC80, at 3 µM, stronger effect = higher value", "values": [{"smiles": "COc1cc(C(=O)NCC2(N3CCOCC3)CCCCC2)cc(Cl)c1OC(C)C", "inhibition": "inactive: 8.22%"}, {"smiles": "Cc1nc2ccc3ccccc3c2s1.O=[N+]([O-])c1cc([N+](=O)[O-])c(O)c([N+](=O)[O-])c1", "inhibition": "inactive: -5.18%"}, {"smiles": "O=[N+]([O-])c1cc([N+](=O)[O-])c(-c2cnn(-c3ccccc3)c2)c([N+](=O)[O-])c1", "inhibition": "inactive: 16.3%"}, {"smiles": "CN(Cc1cccnc1)C(=O)COc1ccc(Cl)c(Cl)c1.O=[N+]([O-])c1cc([N+](=O)[O-])c(O)c([N+](=O)[O-])c1", "inhibition": "inactive: 3.12%"}, {"smiles": "O=[N+]([O-])c1cc([N+](=O)[O-])c(-n2nnc3ccccc32)c([N+](=O)[O-])c1", "inhibition": "inactive: -3.53%"}, {"smiles": "COc1ccc(-c2ccccn2)cc1.O=[N+]([O-])c1cc([N+](=O)[O-])c(O)c([N+](=O)[O-])c1", "inhibition": "inactive: -3.03%"}, {"smiles": "CP(=O)(Nc1ccc(SC(F)(F)F)cc1)Oc1ccccc1", "note": "(configuration not stated)", "inhibition": "inactive: 15.3%"}, {"smiles": "CCCOc1ccc(NP(C)(=O)Oc2ccc(Cl)cc2)cc1", "note": "(configuration not stated)", "inhibition": "inactive: -1.85%"}, {"smiles": "COc1ccccc1OP(C)(=O)Nc1c(C)cccc1C", "note": "(configuration not stated)", "inhibition": "inactive: 1.39%"}, {"smiles": "CCOC(=O)C(CC)C1=NC(C)(C)Cc2ccccc21.O=[N+]([O-])c1cc([N+](=O)[O-])c(O)c([N+](=O)[O-])c1", "note": "(configuration not stated)", "inhibition": "inactive: 6.39%"}, {"smiles": "O=[N+]([O-])c1cc([N+](=O)[O-])c(Nc2nnnn2CCO)c([N+](=O)[O-])c1", "inhibition": "inactive: 5.52%"}, {"smiles": "CN(C)C1(CNC(=O)c2ccc(S(C)(=O)=O)cc2)CCCCC1", "inhibition": "inactive: -1.55%"}, {"smiles": "CC1=C2N=C(C=C3N=C(C(C)=C4[N-][C@@](C)([C@@H]5N=C1[C@](C)(CCC(=O)NC[C@@H](C)OP(=O)([O-])O[C@H]1[C@@H](O)[C@@H](n6cnc7cc(C)c(C)cc76)O[C@@H]1CO)[C@H]5CC(N)=O)[C@@](C)(CC(N)=O)[C@@H]4CCC(N)=O)[C@@](C)(CC(N)=O)[C@@H]3CCC(N)=O)C(C)(C)[C@@H]2CCC(N)=O.[C-]#N.[Co+3]", "inhibition": "inactive: 3.96%"}, {"smiles": "CP(=O)(Nc1ccccc1Br)Oc1ccccc1", "note": "(configuration not stated)", "inhibition": "inactive: -2.71%"}, {"smiles": "COc1ccccc1OP(C)(=O)Nc1ccccc1", "note": "(configuration not stated)", "inhibition": "inactive: 3.82%"}, {"smiles": "CP(=S)(Nn1cnnc1)Oc1ccccc1", "note": "(configuration not stated)", "inhibition": "inactive: -10.7%"}, {"smiles": "CCCCOc1ccc(C(=O)NCC2(N3CCCCC3)CCCCC2)cc1OC", "inhibition": "inactive: 14.9%"}, {"smiles": "CP(=O)(Nc1ccccn1)Oc1ccc(Cl)cc1", "note": "(configuration not stated)", "inhibition": "inactive: 1.01%"}, {"smiles": "CCOC(=O)c1ccc(NP(C)(=O)Oc2ccc(OC)cc2)cc1", "note": "(configuration not stated)", "inhibition": "inactive: -1.53%"}, {"smiles": "O=[N+]([O-])c1cc([N+](=O)[O-])c(O)c([N+](=O)[O-])c1.c1ccc(Oc2ccncc2)cc1", "inhibition": "inactive: -4.87%"}, {"smiles": "CCOP(C)(=S)SCC(=O)NC(C)C(=O)O", "note": "(configuration not stated)", "inhibition": "inactive: 1.21%"}, {"smiles": "Cc1cc(C)cc(OP(C)(=O)Nc2ccc(SC(F)(F)F)cc2)c1", "note": "(configuration not stated)", "inhibition": "inactive: -3.99%"}, {"smiles": "CCc1ccc(OP(C)(=O)N2CCN(c3ccc([N+](=O)[O-])cc3)CC2)cc1", "note": "(configuration not stated)", "inhibition": "inactive: 21.9%"}, {"smiles": "O=C(COc1ccccc1)OC1CN2CCC1CC2", "note": "(configuration not stated)", "inhibition": "active: 33.5%"}, {"smiles": "CP(=O)(NC(=O)Nc1ccccc1)Oc1ccccc1", "note": "(configuration not stated)", "inhibition": "inactive: 3.5%"}, {"smiles": "CP(=O)(Oc1ccccc1)OC(c1ccccc1)C(F)(F)F", "note": "(configuration not stated)", "inhibition": "inactive: 12.1%"}, {"smiles": "Cc1ccc(Nc2c([N+](=O)[O-])cc([N+](=O)[O-])cc2[N+](=O)[O-])cc1", "inhibition": "inactive: 11.9%"}, {"smiles": "Cc1cccc(C)c1OP(C)(=O)Nc1ccc(SC(F)(F)F)cc1", "note": "(configuration not stated)", "inhibition": "inactive: -5.76%"}, {"smiles": "CP(=O)(Nc1ccc(SC(F)(F)F)cc1)Oc1ccc(Cl)cc1", "note": "(configuration not stated)", "inhibition": "inactive: 0.82%"}, {"smiles": "COc1ccccc1-c1ccccn1.O=[N+]([O-])c1cc([N+](=O)[O-])c(O)c([N+](=O)[O-])c1", "inhibition": "inactive: -9.53%"}, {"smiles": "O=C(OC1CN2CCC1CC2)C12CC3CC(CC(C3)C1)C2", "note": "(configuration not stated)", "inhibition": "active: 97.9%"}, {"smiles": "Cc1cc(C)cc(OP(C)(N)=O)c1", "note": "(configuration not stated)", "inhibition": "inactive: -6.85%"}, {"smiles": "COc1ccc(OP(C)(=O)Nc2cccc(F)c2)cc1", "note": "(configuration not stated)", "inhibition": "inactive: 0.63%"}, {"smiles": "COc1ccccc1OP(C)(=O)Nc1cc(Cl)ccc1C", "note": "(configuration not stated)", "inhibition": "inactive: -8.74%"}, {"smiles": "Cc1ccc(NP(C)(=O)Oc2ccccc2)c(C)c1", "note": "(configuration not stated)", "inhibition": "inactive: -0.79%"}, {"smiles": "COc1ccccc1OP(C)(=O)Nc1ccc(C)cc1", "note": "(configuration not stated)", "inhibition": "inactive: -1.17%"}, {"smiles": "CCOC(=O)c1ccc(NP(C)(=O)Oc2ccccc2)cc1", "note": "(configuration not stated)", "inhibition": "inactive: -2.77%"}, {"smiles": "O=[N+]([O-])c1ccc2c(c1)C=Nc1ccccc1O2", "inhibition": "inactive: 5.13%"}, {"smiles": "Cc1cccc(C)c1OP(C)(N)=O", "note": "(configuration not stated)", "inhibition": "inactive: -4.71%"}, {"smiles": "CC(C)(C)c1ccc(OP(C)(=O)Nc2ccc(SC(F)(F)F)cc2)cc1", "note": "(configuration not stated)", "inhibition": "inactive: 11.8%"}, {"smiles": "COc1cc(C(=O)NCC2(N3CCOCC3)CCCCC2)ccc1OCC(C)C", "inhibition": "inactive: -5.47%"}, {"smiles": "O=[N+]([O-])c1cc([N+](=O)[O-])c(Nc2cccnc2)c([N+](=O)[O-])c1", "inhibition": "inactive: 13.4%"}]}]}
